Values quoted from earlier work in patent US7351686B2 (priority 2001, dated 2008).

System: ALS patients
Details: human, in vivo, cited from earlier work

Nc1nc2ccc(OC(F)(F)F)cc2s1 [Riluzole, 2-amino-6-(trifluoromethoxy)benzothiazole]
elongation of life span of ALS patients (po): about 3 months | muscular strength or neurologic function in ALS patients: does not improve
